From PubChem BioAssay AID588780 (Sanford-Burnham Center for Chemical Genomics, 2011) come the findings set out here.

Activity calls are given as the source filed them.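 How the source made its calls: active means compounds whose fitted half-maximal concentration in the cell-protection dose series is at or below a set limit; inactive means the rest.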 Some results are limits rather than exact numbers.

In the test the test system is H9c2 cardiomyocytes, 2-deoxyglucose stress, ATP luminescence, 2 h. The test can be described thus: H9c2 cell survival under 2-deoxyglucose stress – uHTS hits, dose response (AID 588780).

One may read the IC50 as the midpoint of a concentration-inhibition curve. For the compound `CCC(ONc1ccccc1C(F)(F)F)(C(=O)NN(C)C)c1ccccc1` (configuration not stated), the IC50 is inactive: 52.5 µM.
`NC(=O)c1ccsc1NC(=O)c1ccc([N+](=O)[O-])o1`: the IC50 was inactive: > 79 µM.
